From patent publication US10111875B2, “Pyrrolopyrimidine compounds and uses thereof” (HUTCHISON MEDIPHARMA LIMITED, priority 2010, dated 2018)

By UniProt entry, the sequences of proteins in these tests, tags left out. Residues count along the entry.
UniProt P23458, 875-1153: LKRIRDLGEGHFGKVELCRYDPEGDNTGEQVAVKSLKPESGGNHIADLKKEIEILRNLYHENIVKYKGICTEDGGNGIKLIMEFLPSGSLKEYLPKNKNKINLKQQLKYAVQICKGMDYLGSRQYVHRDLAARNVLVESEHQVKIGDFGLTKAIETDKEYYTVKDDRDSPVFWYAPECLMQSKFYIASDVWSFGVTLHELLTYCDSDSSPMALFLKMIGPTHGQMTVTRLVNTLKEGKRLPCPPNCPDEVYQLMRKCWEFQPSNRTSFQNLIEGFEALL

Target: Recombinant human JAK1 catalytic domain (Homo sapiens (Human), UniProt P23458)
Assay: JAK1 kinase assay (Z'-LYTE Tyr 6 Peptide)
Format: biochemical
Conditions: read-out: inhibition percentage (IR %)
Protocol: JAK1/2/3 kinase assay are performed in vitro using Kit-Tyr 6 Peptide (Invitrogen, Cat. No. PV4122). TYK2 kinase assay are performed in vitro using Z′-LYTE™ Kinase Assay Kit-Tyr 3 Peptide (Invitrogen, Cat. No. PV3192). […] All compounds are initially tested at 8 different concentrations (1 μM down to 0.0003 μM) using a 1:3 serial dilution scheme.

In the case of `CN(c1nc(C#N)cs1)[C@@H]1CCN(c2ncnc3[nH]ccc23)C1` [Compound 93], the inhibition at 0.3 µM is reported as 50 to 100%.
